PMC6829864, “Determination of Ligand Profiles for Pseudomonas aeruginosa Solute Binding Proteins” (International Journal of Molecular Sciences, 2019)

The chains behind the UniProt entries cited, without tags or fusion partners. Residues count along the entry.
UniProt Q9I2F8, 30-319: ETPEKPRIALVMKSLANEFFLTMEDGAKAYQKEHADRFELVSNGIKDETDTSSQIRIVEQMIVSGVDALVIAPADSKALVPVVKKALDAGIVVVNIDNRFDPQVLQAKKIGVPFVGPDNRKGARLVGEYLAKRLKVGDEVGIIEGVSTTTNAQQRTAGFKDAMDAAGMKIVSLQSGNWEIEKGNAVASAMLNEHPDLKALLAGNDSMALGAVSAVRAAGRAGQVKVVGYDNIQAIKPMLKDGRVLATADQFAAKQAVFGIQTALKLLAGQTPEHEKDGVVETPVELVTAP

Key:
[1] = target: T1, PA1946 (rspB) (Pseudomonas aeruginosa, UniProt Q9I2F8); assay: DSF thermal shift ligand screening, PA1946; assay type: binding, Pseudomonas aeruginosa PAO1; details: Tm change vs ligand-free protein
[2] = target: T1, PA1946 (rspB); assay: biochemical
[3] = target: T1, PA1946 (rspB); details: 25 °C

SMILES	Tm DSF (Tm increase) [1]	Tm DSF (Tm increase) ([1]; listed as D-ribose)	Kd [2]	Tm DSF (Tm increase) ([1]; listed as D-allose)	KD by ITC [3]	KD by ITC ([3]; listed as D-arabinose)	Tm DSF (Tm increase) ([1]; listed as D-arabinose)
O[C@@H]1[C@H](O)[C@H](O)CO[C@H]1O [D-Ribose]	21.7 °C	about 22 °C	2.1 ± 0.1 µM				
OC[C@H]1O[C@@H](O)[C@H](O)[C@H](O)[C@@H]1O [D-Allose]	22.0 °C			about 22 °C			
OC1OC[C@@H](O)[C@@H](O)[C@@H]1O (stereo partly drawn) [D-Arabinose]	7.5 °C				No binding	no binding was observed	approximately 8 °C

Where two headings read alike, the source gives them in different places.
